Values of other authors in patent US20230285259A1, “METHOD FOR DYEING KERATINOUS MATERIAL, COMPRISING THE USE OF AN ORGANOSILICON COMPOUND, A DERIVATIVE OF ALKYLATED SILANOL, A COLORING COMPOUND AND A POST-TREATMENT AGENT” (Henkel AG & Co. KGaA, priority 2020, published 2023).

Details: 25° C.

In the case of “3,4,5,6-tetrachloro-2-(1,4,5,8-tetrabromo-6-hydroxy-3-oxoxanthen-9-yl)benzoic acid [Acid Red 92]”, the solubility in water is listed as “greater than 10 g/L”.
